Measured values as given in PubChem BioAssay (NCI).
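Exposure lasted 48 hours, with cells grown in 96-well plates and compounds tested at five concentrations. TGI marks complete inhibition of growth.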

Columns and labels:
Assay in all cases: NCI-60 cell line screen, 48 h
SR leukemia = system: SR leukemia
HCT-116 colon = system: HCT-116 colon
NCI-H522 lung = system: NCI-H522 lung
SF-268 CNS = system: SF-268 CNS
HL-60(TB) leukemia = system: HL-60(TB) leukemia
DU-145 prostate = system: DU-145 prostate
MDA-N = system: MDA-N
SNB-75 CNS = system: SNB-75 CNS
NCI-H226 lung = system: NCI-H226 lung
CCRF-CEM leukemia = system: CCRF-CEM leukemia
MDA-MB-435 = system: MDA-MB-435
NCI/ADR-RES ovarian = system: NCI/ADR-RES ovarian
U251 CNS = system: U251 CNS
A549 NSCLC = system: A549 NSCLC
UO-31 renal = system: UO-31 renal
KM12 colon = system: KM12 colon
K-562 leukemia = system: K-562 leukemia
SN12C renal = system: SN12C renal
M14 melanoma = system: M14 melanoma
MALME-3M melanoma = system: MALME-3M melanoma
OVCAR-3 ovarian = system: OVCAR-3 ovarian
UACC-257 melanoma = system: UACC-257 melanoma
SF-295 CNS = system: SF-295 CNS
SW-620 colon = system: SW-620 colon
EKVX NSCLC = system: EKVX NSCLC
OVCAR-5 ovarian = system: OVCAR-5 ovarian
HCC-2998 colon = system: HCC-2998 colon
CAKI-1 renal = system: CAKI-1 renal
HCT-15 colon = system: HCT-15 colon
HS 578T breast = system: HS 578T breast
IGROV1 ovarian = system: IGROV1 ovarian
NCI-H460 lung = system: NCI-H460 lung
TK-10 renal = system: TK-10 renal
OVCAR-8 ovarian = system: OVCAR-8 ovarian
SF-539 CNS = system: SF-539 CNS
HT29 colon = system: HT29 colon
RPMI-8226 leukemia = system: RPMI-8226 leukemia
MDA-MB-231 breast = system: MDA-MB-231 breast
ACHN renal = system: ACHN renal
SK-MEL-28 melanoma = system: SK-MEL-28 melanoma
NCI-H322M lung = system: NCI-H322M lung
HOP-62 NSCLC = system: HOP-62 NSCLC
SK-MEL-5 melanoma = system: SK-MEL-5 melanoma
SNB-19 CNS = system: SNB-19 CNS
LOX IMVI melanoma = system: LOX IMVI melanoma
NCI-H23 lung = system: NCI-H23 lung
COLO 205 colon = system: COLO 205 colon
RXF 393 renal = system: RXF 393 renal
MCF7 breast = system: MCF7 breast
786-0 renal = system: 786-0 renal

Measured: TGI

CNC(/N=C1\N(C)C(C)(C)P(=O)(O)N1C)NC
> 100 µM: all assays above
